Earlier results in patent US7648982B2 (priority 2003, dated 2010).

Settings: in vivo

CN1CC[C@]23c4c5ccc(O)c4O[C@H]2[C@@H](O)C=C[C@H]3[C@H]1C5 [morphine]
concentration at the site of effect considered sub-therapeutic: < 37.5 ng/mL
